Assay: Blood pressure after single oral dose in healthy male volunteers
Conditions: 10 mg orally, healthy subjects
Method: Ten healthy male volunteers were tested on two separate occasions one week apart. On both occasions their blood pressure was measured at baseline.

With S-(−)-pindolol [(−) pindolol] the blood pressure was “no alteration in blood pressure” and the blood pressure (listed as S(−)-pindolol) was “no alteration in blood pressure in a majority of healthy subjects”.
